This series concerns uninephrectomized anesthetized rats, renal ischemia/reperfusion hypertension. Nature of the series: Model of acute angiotensin-mediated renal hypertension in anesthetized rats (Example VI, with HCTZ). The series is classed as in vivo, Sprague-Dawley rats. The settings on record: time 125 min, 5 min after reperfusion, at drug administration (reference value); mean ± S.E.M. The text has this:
The animals were tracheotomized to facilitate spontaneous breathing.
Silk threads were placed around both vessels and ureter. The cavity was then covered with Vaseline oil.
Results are expressed as mean values ±S.E in the tables and as mean values ±S.E. and Δ±S.E. changes in the figures.

The values below come from patent US20050101640A1 (Recordati Ireland Limited, priority 2002, published 2005).

In the case of `COC(=O)C1=C(C)NC(C)=C(C(=O)OC(C)(C)CN(C)CCC(c2ccccc2)c2ccccc2)C1c1cccc([N+](=O)[O-])c1` (stereo not shown) [lercanidipine, methyl 1,1,N-trimethyl-N-(3,3-diphenylpropyl)-2-aminoethyl 1,4-dihydro-2,6-dimethyl-4-(3-nitrophenyl)pyridine-3,5-dicarboxylate], the HR is given as 378.0 ± 17.2 beats/min.
